Our source for the deltaG values is ChEMBL document CHEMBL5260804, “Affinity of Rimantadine Enantiomers against Influenza A/M2 Protein Revisited” (ACS Med Chem Lett, 2017).

Sequences of proteins named here, by UniProt entry; tags and fusion partners are left off.
UniProt P06821, whole entry: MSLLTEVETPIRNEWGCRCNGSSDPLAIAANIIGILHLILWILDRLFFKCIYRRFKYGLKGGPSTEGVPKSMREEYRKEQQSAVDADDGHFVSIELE

This experiment deals with Matrix protein 2 (Influenza A virus) (UniProt P06821). Particulars: A/Udorn/72 (H3N2).

Each structure is given as a SMILES string.

`C[C@H](N)C12CC3CC(CC(C3)C1)C2` yielded a deltaG of -8.88 kcal/mol.
The molecule `CC(N)C12CC3CC(CC(C3)C1)C2` (racemic) [RIMANTADINE] displayed a deltaG of -8.64 kcal/mol.
